According to ChEMBL document CHEMBL5230100, “Novel quinazoline-based EGFR kinase inhibitors: A review focussing on SAR and molecular docking studies (2015-2019)” (Eur J Med Chem, 2020):

Test system: DNA
Assay: Binding affinity to DNA (unknown origin) by UV-visible spectroscopic method
Assay type: nucleic-acid assay

K: 7.1 10^5/M
Structure (SMILES): CCCN(c1ccc(F)c(Cl)c1)c1ncnc2cc(OC)c(OCCCN3CCOCC3)cc12
